Laboratory results as given in PubChem BioAssay AID1224817 (Yan Lab, Georgia Cancer Center, Augusta University, 2016).
This is a selection; strong and weak results do not stand in their true shares. The source made the active and inactive calls.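 The calls were made as follows: active = log2 luciferase ratio at or below -0.5849, meaning signal at two thirds of solvent-only control or lower; inactive = the rest.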

Test: eIF4E expression suppression, luciferase knock-in reporter – cell-based, HT1080, primary screen (AID 1224817);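 also: luciferase reports endogenous eIF4E expression since it is co-expressed from the native EIF4E locus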
Conditions: HT1080 EIF4E-luc2 knock-in reporter, 16 h, at 2.5 µM, hits give low values

Q: For `NCCC(N)CSP(=O)(O)O` (stereo not drawn), which log2 luciferase activity ratio is on record?
A: inactive: -0.0637

Q: For `O=[As]c1ccc(S(=O)(=O)NCCO)cc1` (stereo not drawn), which log2 luciferase activity ratio is on record?
A: inactive: -0.225

Q: With `[N-]=[N+]=NCC(N)=O` as the molecule, how does the log2 luciferase activity ratio read?
A: inactive: -0.257

Q: For `NC(=O)Nc1cc([As](=O)(O)O)cc(I)c1O`, which log2 luciferase activity ratio is on record?
A: inactive: 0.28

Q: With `NS(=O)(=O)Cc1ccc([As](=O)(O)O)cc1` as the molecule, how does the log2 luciferase activity ratio read?
A: inactive: 0.0654

Q: With `O=[As](O)(O)c1ccc([As](=O)(O)O)cc1` as the molecule, how does the log2 luciferase activity ratio read?
A: inactive: -0.112

Q: Which log2 luciferase activity ratio does the source give for `CC(O)COc1ccc([As](=O)(O)O)cc1N` (stereo not drawn) here?
A: inactive: -0.0639

Q: Which log2 luciferase activity ratio does the source give for `[N-]=[N+]=Nc1ccc([As](=O)(O)O)cc1` here?
A: inactive: -0.338

Q: Which log2 luciferase activity ratio does the source give for `CN1CCCC(OC(=O)C(c2ccccc2)c2ccccc2)C1` (stereo not drawn) here?
A: inactive: -0.0697

Q: For `O=[N+]([O-])c1ccc(C[As](=O)(O)O)cc1`, which log2 luciferase activity ratio is on record?
A: inactive: -0.158

Q: With `C(Cc1nn[nH]n1)c1nn[nH]n1` as the molecule, how does the log2 luciferase activity ratio read?
A: inactive: 0.115

Q: With `O=C(CO)Nc1ccc([As](=O)(O)O)cc1` as the molecule, how does the log2 luciferase activity ratio read?
A: inactive: -0.261

Q: For `O=C(O)C(O)c1ccc([As](=O)(O)O)cc1` (stereo not drawn), which log2 luciferase activity ratio is on record?
A: inactive: -0.0935
